Assay: Lipophilicity relative to human insulin (k′rel) by isocratic RP-HPLC
Type: physicochemical
Details: LiChrosorb RP18 HPLC column, isocratic elution at 40° C., pH 7.3
Experimental: Void time, t0, was found by injecting 0.1 mM sodium nitrate.

(N(1-carboxytridecyl)-2-amidosuccinyl)-Phe^αB1 des(B30) human insulin [Example 6]
Relative lipophilicity, k′rel: 140
